# Test results as given in patent publication US20240245647A1, “ISOMEROHYDROLASE INHIBITOR FOR TREATMENT OF ATROPHIC FORM OF AGE-RELATED MACULAR DEGENERATION AND STARGARDT DISEASE” (The Trustees of Columbia University in the City of New York, priority 2021, published 2024).
# Protein sequences, listed by entry. Tags and fused reporters are not part of them.
# UniProt Q28175, whole entry: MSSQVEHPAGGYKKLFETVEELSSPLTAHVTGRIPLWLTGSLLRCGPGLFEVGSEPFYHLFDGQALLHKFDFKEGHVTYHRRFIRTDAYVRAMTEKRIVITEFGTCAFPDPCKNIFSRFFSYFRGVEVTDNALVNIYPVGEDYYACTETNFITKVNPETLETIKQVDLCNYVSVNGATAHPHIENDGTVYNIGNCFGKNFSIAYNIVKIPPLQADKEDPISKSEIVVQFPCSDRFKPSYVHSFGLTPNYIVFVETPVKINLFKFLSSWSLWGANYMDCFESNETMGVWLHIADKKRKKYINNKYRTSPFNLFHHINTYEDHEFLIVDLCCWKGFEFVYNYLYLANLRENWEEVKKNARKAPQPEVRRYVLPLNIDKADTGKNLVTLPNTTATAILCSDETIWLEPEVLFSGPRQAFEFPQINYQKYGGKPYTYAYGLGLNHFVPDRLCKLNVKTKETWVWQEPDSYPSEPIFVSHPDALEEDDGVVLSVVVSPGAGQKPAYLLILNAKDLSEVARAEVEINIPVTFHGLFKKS
# Key:
# RPE65 = RPE65 (Bos taurus, UniProt Q28175); assay: In vitro retinol isomerase (isomerohydrolase, IMH) assay with bovine RPE microsomes
# VAP-1 = VAP-1 stability in dog plasma
# [1] = Sequestration of all-trans-retinal (atRAL) in vitro; settings: 100 μM compound, equimolar atRAL, 30 min
smiles,measurement,setting,value
[2H]C([2H])(N)C([2H])([2H])S(=N)(=O)c1cccc(OCC2CCCCC2)c1 (stereo not shown),"RPE65 inhibition, in words",RPE65,effectively inhibit
same,IC50,RPE65; read-out: IC50 in the primary IMH / RPE65 inhibition assay,60 nM
same,"dog plasma stability, in words",VAP-1,increased dog plasma stability
same,atRAL reduction,[1],87%
